Literature values as cited in patent US6803479B2, “Reagents and method for spatio-temporal control of gene expression by illumination” (University of Maryland Biotechnology Institute, priority 2001, dated 2004).

Tests used:
[1] = biological target: T1, chimeric transactivator (mutant progesterone receptor ligand binding domain-GAL4-VP16) (Homo sapiens, UniProt P06401); conditions: in vitro; cited from earlier work
[2] = biological target: T2, human progesterone receptor with a C-terminal 42-aa deletion (Homo sapiens, UniProt P06401); conditions: cited from earlier work
T2 sequence (P06401 1-891 limits assumed): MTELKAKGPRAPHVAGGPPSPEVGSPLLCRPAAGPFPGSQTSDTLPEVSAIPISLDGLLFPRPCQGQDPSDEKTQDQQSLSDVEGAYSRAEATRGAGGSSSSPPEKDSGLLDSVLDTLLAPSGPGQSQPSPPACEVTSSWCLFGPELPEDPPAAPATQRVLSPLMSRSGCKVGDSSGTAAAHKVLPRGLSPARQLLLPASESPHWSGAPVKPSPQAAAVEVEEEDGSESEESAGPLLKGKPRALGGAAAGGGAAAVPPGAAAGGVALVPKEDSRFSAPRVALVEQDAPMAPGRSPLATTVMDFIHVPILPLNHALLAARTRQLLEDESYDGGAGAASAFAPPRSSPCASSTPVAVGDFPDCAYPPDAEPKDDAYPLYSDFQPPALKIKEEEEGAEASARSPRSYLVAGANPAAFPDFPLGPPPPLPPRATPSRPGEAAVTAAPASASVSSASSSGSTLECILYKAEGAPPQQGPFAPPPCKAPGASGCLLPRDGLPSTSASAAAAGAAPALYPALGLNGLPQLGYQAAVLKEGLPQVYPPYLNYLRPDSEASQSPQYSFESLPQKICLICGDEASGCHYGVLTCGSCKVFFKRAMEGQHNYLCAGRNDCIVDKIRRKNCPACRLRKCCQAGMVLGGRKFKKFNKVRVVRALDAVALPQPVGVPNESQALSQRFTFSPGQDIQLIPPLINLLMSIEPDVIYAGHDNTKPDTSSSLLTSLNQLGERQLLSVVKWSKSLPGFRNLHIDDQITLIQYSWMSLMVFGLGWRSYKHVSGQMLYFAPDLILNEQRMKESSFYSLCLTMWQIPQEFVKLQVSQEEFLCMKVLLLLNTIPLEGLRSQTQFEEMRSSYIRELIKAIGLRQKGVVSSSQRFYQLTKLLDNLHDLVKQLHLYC

[3] = biological target: T1, chimeric transactivator (mutant progesterone receptor ligand binding domain-GAL4-VP16); conditions: transgenic mice, single intraperitoneal injection of suspension in oil at 250 μg/kg body weight; cited from earlier work

SMILES	concentrations inducing transcription of transgenes [1]	affinity for the truncated receptor [2]	elevation of transgene expression [3]
CC#C[C@]1(O)CC[C@H]2[C@@H]3CCC4=CC(=O)CCC4=C3[C@@H](c3ccc(N(C)C)cc3)C[C@@]21C [mifepristone]	a few nanomolar	high affinity binding	1500 fold
CC(=O)[C@H]1CC[C@H]2[C@@H]3CCC4=CC(=O)CC[C@]4(C)[C@H]3CC[C@]12C [progesterone]		no affinity	
